Measured values from ChEMBL document CHEMBL4138300 (ACS Med Chem Lett, 2018).

Chains of the proteins cited; added tags and fusions are not shown.
UniProt Q15910, whole entry, looked up: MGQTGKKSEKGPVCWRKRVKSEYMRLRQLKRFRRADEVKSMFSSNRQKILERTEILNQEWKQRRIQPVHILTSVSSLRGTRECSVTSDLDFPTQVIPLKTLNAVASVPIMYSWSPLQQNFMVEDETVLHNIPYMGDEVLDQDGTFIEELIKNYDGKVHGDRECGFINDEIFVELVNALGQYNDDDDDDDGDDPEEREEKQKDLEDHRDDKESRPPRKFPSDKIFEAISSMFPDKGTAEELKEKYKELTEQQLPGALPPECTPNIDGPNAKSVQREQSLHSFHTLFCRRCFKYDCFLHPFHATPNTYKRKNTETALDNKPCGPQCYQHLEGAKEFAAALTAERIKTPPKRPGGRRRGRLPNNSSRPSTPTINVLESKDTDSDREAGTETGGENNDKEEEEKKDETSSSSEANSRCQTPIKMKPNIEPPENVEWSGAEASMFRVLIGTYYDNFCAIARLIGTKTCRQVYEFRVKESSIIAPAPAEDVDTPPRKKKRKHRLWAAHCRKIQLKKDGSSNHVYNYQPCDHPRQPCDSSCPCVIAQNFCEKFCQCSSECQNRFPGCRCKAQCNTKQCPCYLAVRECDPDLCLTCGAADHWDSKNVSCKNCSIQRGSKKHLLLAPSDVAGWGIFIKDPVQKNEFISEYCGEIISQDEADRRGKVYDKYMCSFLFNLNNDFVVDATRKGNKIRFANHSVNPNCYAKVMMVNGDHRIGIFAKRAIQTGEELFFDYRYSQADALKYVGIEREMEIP

Molecular target: Histone-lysine N-methyltransferase EZH2 (Homo sapiens, UniProt Q15910)
Experiment: Potency index, ratio of EPZ-6438 IC50 to compound IC50 for EZH2 inhibition in human Pfeiffer cells
Assay type: cell-based

`CCc1c(N(CC)C2CCOCC2)cc2oc(C3CCN(C(C)C)CC3)cc2c1C(=O)NCc1c(C)cc(C)[nH]c1=O` gave a Ratio IC50 of 3.
